Species on record: Mus musculus

Row | Structure (SMILES) | LC50 [µM]
1 | NP(=O)(OCc1ccccc1)N(CCCl)CCCl (stereo not drawn) | 6.1
2 | COP(N)(=O)N(CCCl)CCCl (stereo not drawn) | 16.5
3 | NP(=O)(OCc1ccc(F)cc1F)N(CCCl)CCCl (stereo not drawn) | 19.6

Source: ChEMBL document CHEMBL1125916 (1991)
